From patent US9487511B2, “Cyclopropanamine compound and use thereof” (Takeda Pharmaceutical Company Limited, priority 2014, dated 2016) come the findings set out here.

Chains of the proteins cited; added tags and fusions are not shown.
UniProt P21397, whole entry: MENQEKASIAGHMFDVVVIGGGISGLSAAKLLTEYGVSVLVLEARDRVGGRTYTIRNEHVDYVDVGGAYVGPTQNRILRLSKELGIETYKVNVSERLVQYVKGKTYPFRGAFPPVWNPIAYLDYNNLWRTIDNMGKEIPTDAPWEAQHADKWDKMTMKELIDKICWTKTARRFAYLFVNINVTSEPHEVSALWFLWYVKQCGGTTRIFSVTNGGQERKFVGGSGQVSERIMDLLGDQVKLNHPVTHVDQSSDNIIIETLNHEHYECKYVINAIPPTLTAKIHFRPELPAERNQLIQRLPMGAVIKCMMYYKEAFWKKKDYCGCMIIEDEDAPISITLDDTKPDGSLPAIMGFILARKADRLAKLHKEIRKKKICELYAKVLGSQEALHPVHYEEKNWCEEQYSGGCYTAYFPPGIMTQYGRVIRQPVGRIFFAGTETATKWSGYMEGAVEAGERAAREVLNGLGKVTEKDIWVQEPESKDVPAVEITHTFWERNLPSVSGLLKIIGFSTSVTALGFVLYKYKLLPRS
UniProt P27338, whole entry: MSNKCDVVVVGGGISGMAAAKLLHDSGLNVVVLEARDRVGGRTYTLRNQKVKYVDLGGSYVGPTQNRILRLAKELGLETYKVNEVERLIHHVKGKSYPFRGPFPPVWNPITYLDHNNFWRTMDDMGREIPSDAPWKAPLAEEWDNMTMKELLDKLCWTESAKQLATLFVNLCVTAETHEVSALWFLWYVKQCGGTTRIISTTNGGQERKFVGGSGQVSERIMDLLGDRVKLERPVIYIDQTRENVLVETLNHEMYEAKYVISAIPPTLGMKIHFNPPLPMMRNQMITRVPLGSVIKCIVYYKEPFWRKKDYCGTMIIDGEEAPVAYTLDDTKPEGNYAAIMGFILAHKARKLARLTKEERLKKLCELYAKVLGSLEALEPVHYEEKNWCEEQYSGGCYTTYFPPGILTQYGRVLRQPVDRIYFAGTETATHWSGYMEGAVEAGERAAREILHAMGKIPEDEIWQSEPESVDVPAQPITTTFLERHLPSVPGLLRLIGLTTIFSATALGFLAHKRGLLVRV

One assay addresses MAO-A enzyme (Homo sapiens (Human), UniProt P21397). Nature of the assay: Measurement of MAO-A inhibitory activity (MAO-Glo Assay). It counts as biochemical.
A further assay addresses MAO-B enzyme (Homo sapiens (Human), UniProt P27338). Briefly: Measurement of MAO-B inhibitory activity (MAO-Glo Assay). It is filed as biochemical.

Structures can show the parent of a compound that is named as a salt. Where only a bound is given, the exact number is not on record here.

The term IC50 denotes the concentration needed to halve the response being measured. Read a high IC50 as weaker potency in that assay. Regarding `Cn1nc(C(=O)NC2CCC(F)(F)CC2)cc1[C@@H]1C[C@H]1NCC1CC1` (relative stereo) [Example 3, 5-(trans-2-((cyclopropylmethyl)amino)cyclopropyl)-N-(4,4-difluorocyclohexyl)-1-methyl-1H-pyrazole-3-carboxamide hydrochloride], the IC50 against MAO-A enzyme was above 100 µM.
With `Cn1nc(C(=O)NC2CCC(F)(F)CC2)cc1[C@@H]1C[C@H]1N` (relative stereo) [Example 4, 5-(trans-2-aminocyclopropyl)-N-(4,4-difluorocyclohexyl)-1-methyl-1H-pyrazole-3-carboxamide hydrochloride], the IC50 against MAO-B enzyme is above 100 µM.
In the case of `Cc1sc(C(=O)NC2CCC(F)(F)CC2)cc1[C@@H]1C[C@H]1NCC1CCOCC1` (relative stereo) [Example 8, N-(4,4-difluorocyclohexyl)-5-methyl-4-(trans-2-((tetrahydro-2H-pyran-4-ylmethyl)amino)cyclopropyl)thiophene-2-carboxamide hydrochloride], the half-inhibitory concentration (IC50) against MAO-B enzyme was above 100 µM.
On to `Cc1nnc(NC(=O)c2cc3c(c([C@@H]4C[C@H]4NCC4CC4)c2)OCC3)s1` (relative stereo) [Example 10, 7-(trans-2-((cyclopropylmethyl)amino)cyclopropyl)-N-(5-methyl-1,3,4-thiadiazol-2-yl)-2,3-dihydro-1-benzofuran-5-carboxamide dihydrochloride], for which the IC50 against MAO-A enzyme and at MAO-B enzyme was above 100 µM throughout.
Regarding `Cc1sc(C(=O)NC2CCC(F)(F)CC2)cc1[C@@H]1C[C@H]1NC1CCOCC1` (relative stereo) [Example 21, N-(4,4-difluorocyclohexyl)-5-methyl-4-(trans-2-(tetrahydro-2H-pyran-4-ylamino)cyclopropyl)thiophene-2-carboxamide fumarate], the IC50 on MAO-B enzyme came to 88 µM.
On the same count and under the same terms, the figure for `O=C(NC1CCC(F)(F)CC1)c1cc([C@@H]2C[C@H]2NC2CCOCC2)cs1` (relative stereo) [Example 29, N-(4,4-difluorocyclohexyl)-4-(trans-2-(tetrahydro-2H-pyran-4-ylamino)cyclopropyl)thiophene-2-carboxamide hydrochloride] is above 100 µM.
Consider `O=C(NC1CCOCC1)c1csc([C@@H]2C[C@H]2NCC2CC2)c1` (relative stereo) [Example 32, 5-(trans-2-((cyclopropylmethyl)amino)cyclopropyl)-N-(tetrahydro-2H-pyran-4-yl)thiophene-3-carboxamide hydrochloride], for which the IC50 at MAO-A enzyme and against MAO-B enzyme was above 100 µM in each case.
`O=C(NC1CCC(F)(F)CC1)c1nc([C@@H]2C[C@H]2NCC2CC2)cs1` (relative stereo) [Example 35, 4-(trans-2-((cyclopropylmethyl)amino)cyclopropyl)-N-(4,4-difluorocyclohexyl)thiazole-2-carboxamide hydrochloride]: the IC50 on MAO-B enzyme is above 100 µM.
For `Cc1nnc(NC(=O)c2ccc([C@@H]3C[C@H]3NCC3CC3)s2)s1` (relative stereo) [Example 37, 5-(trans-2-((cyclopropylmethyl)amino)cyclopropyl)-N-(5-methyl-1,3,4-thiadiazol-2-yl)thiophene-2-carboxamide dihydrochloride], the IC50 at MAO-A enzyme was 85 µM.
Still for that read-out and setting: the figure for `Cc1nnc(NC(=O)c2cc([C@@H]3C[C@H]3NC3CCC3)cs2)s1` (relative stereo) [Example 57, 4-(trans-2-(cyclobutylamino)cyclopropyl)-N-(5-methyl-1,3,4-thiadiazol-2-yl)thiophene-2-carboxamide hydrochloride] is above 100 µM.
As to `Cn1cc(NC(=O)c2cc([C@@H]3C[C@H]3NC3CCC3)cs2)cn1` (relative stereo) [Example 61, 4-(trans-2-(cyclobutylamino)cyclopropyl)-N-(1-methyl-1H-pyrazol-4-yl)thiophene-2-carboxamide dihydrochloride], the IC50 against MAO-A enzyme and against MAO-B enzyme was above 100 µM throughout.
Molecule `O=C(NC1CCOCC1)c1cc([C@@H]2C[C@H]2NCC2CC2)cs1` (relative stereo) [Example 64, 4-(trans-2-((cyclopropylmethyl)amino)cyclopropyl)-N-(tetrahydro-2H-pyran-4-yl)thiophene-2-carboxamide hydrochloride] yielded an IC50 on MAO-B enzyme above 100 µM.
`O=C(NC1CCOCC1)c1csc(C2CC2NC2CCC2)c1` (single isomer, unassigned) [Example 42, hydrochloride] yielded an IC50 at MAO-A enzyme above 100 µM.
In the case of `O=C(NC1CCOCC1)c1csc(C2CC2NC2CCC2)c1` (single isomer, unassigned) [Example 43, hydrochloride], the IC50 against MAO-A enzyme was above 100 µM.
Take `O=C(NC1CCOCC1)c1csc([C@@H]2C[C@H]2NCC2CC2)c1` [Example 71, 5-((1R,2R)-2-((cyclopropylmethyl)amino)cyclopropyl)-N-(tetrahydro-2H-pyran-4-yl)thiophene-3-carboxamide hydrochloride]: the IC50 on MAO-A enzyme and at MAO-B enzyme was above 100 µM each time.
In turn, `O=C(NC1CCOCC1)c1cc([C@H]2C[C@@H]2NCC2CC2)cs1` [Example 75, 4-((1R,2S)-2-((cyclopropylmethyl)amino)cyclopropyl)-N-(tetrahydro-2H-pyran-4-yl)thiophene-2-carboxamide hydrochloride] came in with a 50% inhibitory concentration (IC50) on MAO-B enzyme above 100 µM.
`O=C(NC1CCOCC1)c1cc([C@@H]2C[C@H]2NCC2CC2)cs1` [Example 77, 4-((1S,2R)-2-((cyclopropylmethyl)amino)cyclopropyl)-N-(tetrahydro-2H-pyran-4-yl)thiophene-2-carboxamide hydrochloride] yielded an IC50 at MAO-B enzyme above 100 µM.
On MAO-A enzyme, `Cc1nnc(NC(=O)c2cc([C@@H]3C[C@H]3NCC3CC3)cs2)s1` [Example 82, 4-((1S,2R)-2-((cyclopropylmethyl)amino)cyclopropyl)-N-(5-methyl-1,3,4-thiadiazol-2-yl)thiophene-2-carboxamide dihydrochloride] came in with an IC50 above 100 µM.
Regarding `Cc1nnc(NC(=O)c2cc([C@H]3C[C@@H]3NCC3CC3)cs2)s1` [Example 83, 4-((1R,2S)-2-((cyclopropylmethyl)amino)cyclopropyl)-N-(5-methyl-1,3,4-thiadiazol-2-yl)thiophene-2-carboxamide dihydrochloride], at MAO-A enzyme, the IC50 is above 100 µM.
Still for that read-out and setting: the same measure for `Cc1nnc(NC(=O)c2cc([C@H]3C[C@@H]3NC3CCC3)cs2)s1` [Example 85, 4-((1R,25)-2-(cyclobutylamino)cyclopropyl)-N-(5-methyl-1,3,4-thiadiazol-2-yl)thiophene-2-carboxamide dihydrochloride]: above 100 µM.
For `Cn1cc(NC(=O)c2cc([C@@H]3C[C@H]3NC3CCC3)cs2)cn1` [Example 89, 4-((1S,2R)-2-(cyclobutylamino)cyclopropyl)-N-(1-methyl-1H-pyrazol-4-yl)thiophene-2-carboxamide dihydrochloride], the IC50 at MAO-A enzyme and against MAO-B enzyme was above 100 µM throughout.
As for `Cn1cc(NC(=O)c2cc([C@H]3C[C@@H]3NC3CCC3)cs2)cn1` [Example 90, 4-((1R,2S)-2-(cyclobutylamino)cyclopropyl)-N-(1-methyl-1H-pyrazol-4-yl)thiophene-2-carboxamide dihydrochloride], the IC50 against MAO-A enzyme and against MAO-B enzyme was above 100 µM in each case.
On to `Cc1sc(C(=O)NC2CCC(F)(F)CC2)cc1[C@@H]1C[C@H]1NC1CCOCC1` [Example 93, N-(4,4-difluorocyclohexyl)-5-methyl-4-((1S,2R)-2-(tetrahydro-2H-pyran-4-ylamino)cyclopropyl)thiophene-2-carboxamide fumarate], for which the IC50 against MAO-B enzyme is above 100 µM.
Still for that read-out and setting: the same measure for `Cc1sc(C(=O)NC2CCC(F)(F)CC2)cc1[C@H]1C[C@@H]1NC1CCOCC1` [Example 94, N-(4,4-difluorocyclohexyl)-5-methyl-4-((1R,2S)-2-(tetrahydro-2H-pyran-4-ylamino)cyclopropyl)thiophene-2-carboxamide fumarate]: above 100 µM; for `Cc1sc(C(=O)Nc2cnn(C)c2)cc1[C@H]1C[C@@H]1NCC1CC1` [Example 103, 4-((1R,2S)-2-((cyclopropylmethyl)amino)cyclopropyl)-5-methyl-N-(1-methyl-1H-pyrazol-4-yl)thiophene-2-carboxamide dihydrochloride]: above 100 µM.
As for `O=C(NC1CCOCC1)c1csc([C@@H]2C[C@H]2NCC2CC2)c1` [Example 113, 5-((1R,2R)-2-((cyclopropylmethyl)amino)cyclopropyl)-N-(tetrahydro-2H-pyran-4-yl)thiophene-3-carboxamide malate], the IC50 against MAO-A enzyme and on MAO-B enzyme was above 100 µM throughout.
With `O=C(NC1CCOCC1)c1csc([C@@H]2C[C@H]2NCC2CC2)c1` [Example 114, 5-((1R,2R)-2-((cyclopropylmethyl)amino)cyclopropyl)-N-(tetrahydro-2H-pyran-4-yl)thiophene-3-carboxamide succinate], the IC50 at MAO-A enzyme and on MAO-B enzyme was above 100 µM each time.
As to `O=C(NC1CCOCC1)c1csc([C@@H]2C[C@H]2NCC2CC2)c1` [Example 115, 5-((1R,2R)-2-((cyclopropylmethyl)amino)cyclopropyl)-N-(tetrahydro-2H-pyran-4-yl)thiophene-3-carboxamide fumarate], the IC50 on MAO-A enzyme and against MAO-B enzyme was above 100 µM each time.
At MAO-A enzyme, `Cc1nnc(NC(=O)c2cc([C@@H]3C[C@H]3NC3CCC3)cs2)s1` [Example 116, 4-((1S,2R)-2-(cyclobutylamino)cyclopropyl)-N-(5-methyl-1,3,4-thiadiazol-2-yl)thiophene-2-carboxamide phosphate] came in with an IC50 above 100 µM.
The same measure, in the same setting: the figure for `Cc1sc(C(=O)Nc2cnn(C)c2)cc1[C@@H]1C[C@H]1NCC1CCC1` [Example 121, 4-((1S,2R)-2-((cyclobutylmethyl)amino)cyclopropyl)-5-methyl-N-(1-methyl-1H-pyrazol-4-yl)thiophene-2-carboxamide dihydrochloride] is above 100 µM.
`Cc1sc(C(=O)NC2CCOCC2)cc1[C@@H]1C[C@H]1NCC1CCC1` [Example 122, 4-((1S,2R)-2-((cyclobutylmethyl)amino)cyclopropyl)-5-methyl-N-(tetrahydro-2H-pyran-4-yl)thiophene-2-carboxamide hydrochloride] yielded an IC50 at MAO-B enzyme above 100 µM.
